# Values of other authors as cited in publication PMC7771244.
# Molecular target: H4 K16ac peptide (Homo sapiens) (UniProt P62805)
# Conditions: cited from earlier work
substance,measurement,value
BPTF bromodomain (from UniProt Q12830),Kd,150 µM
